Measurements as given in ChEMBL document CHEMBL1148822, “Principal component analysis differentiates the receptor binding profiles of three antipsychotic drug candidates from current antipsychotic drugs” (J Med Chem, 2007).

Sequences of proteins named here, by UniProt entry; tags and fusion partners are left off.
UniProt P34969, whole entry: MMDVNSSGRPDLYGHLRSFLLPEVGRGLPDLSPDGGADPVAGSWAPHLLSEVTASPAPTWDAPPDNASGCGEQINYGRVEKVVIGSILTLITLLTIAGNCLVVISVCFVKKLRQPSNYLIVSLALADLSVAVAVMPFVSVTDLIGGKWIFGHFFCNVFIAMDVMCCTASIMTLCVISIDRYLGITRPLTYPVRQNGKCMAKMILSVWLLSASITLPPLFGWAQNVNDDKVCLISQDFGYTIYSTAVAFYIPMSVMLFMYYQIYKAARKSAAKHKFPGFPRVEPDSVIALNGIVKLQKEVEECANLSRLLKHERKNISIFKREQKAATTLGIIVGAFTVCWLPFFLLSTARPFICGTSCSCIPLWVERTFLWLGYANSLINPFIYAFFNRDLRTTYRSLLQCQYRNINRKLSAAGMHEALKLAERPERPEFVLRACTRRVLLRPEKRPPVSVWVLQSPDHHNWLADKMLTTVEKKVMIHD

Biological target: 5-hydroxytryptamine receptor 7 (Homo sapiens, UniProt P34969)
Assay: biochemical

Which Ki does the source give for `CCN1CCCC1CNC(=O)c1cc(S(=O)(=O)CC)c(N)cc1OC` (stereo unspecified) [AMISULPRIDE] here?
The Ki was 25.1 nM.
